Tested on: M109 cells, a mouse lung carcinoma line
Experiment: In vitro cytotoxicity / growth rate of M109 cells, methylene blue staining, 72 hour continuous exposure
Conditions: cysteine 150, 500, 1000 μM

## CO[C@@]12[C@H](COC(N)=O)C3=C(C(=O)C(C)=C(N)C3=O)N1C[C@@H]1N[C@@H]12 [free MMC, mitomycin C]
  effect of cysteine on cytotoxicity / cell growth rate: no effect
